Results published in publication PMC2880861 (New journal of chemistry = Nouveau journal de chimie, 2010).

Target: soluble fibrin fragment DD(E)
Test: DD
Settings: read-out: Ki, inhibition of binding of a fluorescent peptide to DD(E); TBS·Ca; DD(E) 1.5 μM, Fl 1 μM; uncertainties estimated at ±10%

Ki: 4.7 µM
Compound: CC(C)C[C@H](NC(=O)CN(CCNC(=O)C(CN(CCN(CC(=O)O)CC(=O)O)CC(=O)O)N(CC(=O)O)CC(=O)O)CCNC(=O)C(CN(CCN(CC(=O)O)CC(=O)O)CC(=O)O)N(CC(=O)O)CC(=O)O)C(=O)N1CCC[C@H]1C(=O)N[C@H]1CSSC[C@@H](C(=O)N[C@@H](Cc2ccc(-c3ccccc3)cc2)C(=O)N[C@@H](CC(=O)O)C(=O)NCc2cccc(CNC(=O)CN(CCNC(=O)C(CN(CCN(CC(=O)O)CC(=O)O)CC(=O)O)N(CC(=O)O)CC(=O)O)CCNC(=O)C(CN(CCN(CC(=O)O)CC(=O)O)CC(=O)O)N(CC(=O)O)CC(=O)O)c2)NC(=O)[C@H]([C@@H](C)O)NC(=O)CNC(=O)[C@H](Cc2ccc(O)cc2)NC(=O)[C@H](Cc2ccc(O)cc2)NC(=O)[C@H](CC(=O)O)NC1=O (stereo partly shown) [Compound 5]
